In patent publication US11578084B2, “Condensed ring compounds having dopamine D3 receptor antagonistic effect” (Shionogi & Co., Ltd., priority 2018, dated 2023) one finds Ki data, which are given here for one compound.

By UniProt entry, the sequences of proteins in these tests, tags left out.
UniProt P35462, whole entry: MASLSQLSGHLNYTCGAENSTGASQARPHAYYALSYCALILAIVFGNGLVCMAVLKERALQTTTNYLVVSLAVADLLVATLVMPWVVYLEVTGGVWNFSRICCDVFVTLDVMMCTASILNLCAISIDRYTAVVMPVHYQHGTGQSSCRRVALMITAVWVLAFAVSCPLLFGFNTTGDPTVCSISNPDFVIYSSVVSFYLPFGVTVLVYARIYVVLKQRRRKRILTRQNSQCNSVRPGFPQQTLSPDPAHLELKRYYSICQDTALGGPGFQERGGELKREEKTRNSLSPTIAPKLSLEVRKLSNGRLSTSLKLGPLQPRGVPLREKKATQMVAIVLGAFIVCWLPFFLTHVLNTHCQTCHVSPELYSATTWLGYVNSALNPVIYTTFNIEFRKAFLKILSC
UniProt P14416, whole entry: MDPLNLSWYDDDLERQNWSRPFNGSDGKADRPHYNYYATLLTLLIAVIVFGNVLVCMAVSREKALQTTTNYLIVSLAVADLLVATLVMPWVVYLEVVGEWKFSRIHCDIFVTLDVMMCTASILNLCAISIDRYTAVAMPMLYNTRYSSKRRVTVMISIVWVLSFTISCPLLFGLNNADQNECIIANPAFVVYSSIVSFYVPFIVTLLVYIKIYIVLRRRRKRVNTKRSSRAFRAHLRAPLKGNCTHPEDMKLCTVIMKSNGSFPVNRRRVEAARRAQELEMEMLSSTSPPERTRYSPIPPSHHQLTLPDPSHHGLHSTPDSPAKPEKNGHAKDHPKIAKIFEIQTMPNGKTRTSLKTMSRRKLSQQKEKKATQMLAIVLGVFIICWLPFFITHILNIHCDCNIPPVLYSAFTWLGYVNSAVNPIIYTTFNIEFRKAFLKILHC

In experiment [1] the target is human recombinant dopamine D3 receptor (Homo sapiens (Human), UniProt P35462). As to the kind of experiment: Test of binding inhibition for dopamine D3 receptor ([3H]-Methylspiperone SPA). The note with it: read-out: hD3_Ki; Jump-In HEK cell membranes, 2 nM [3H]-Methylspiperone, 120 min at 25° C.
Experiment [2] deals with human recombinant dopamine D2 receptor (Homo sapiens (Human), UniProt P14416). Kind of experiment: Test of binding inhibition for dopamine D2 receptor ([3H]-Methylspiperone SPA). Particulars: read-out: hD2_Ki; [3H]-Methylspiperone 1.2 nM, Jump-In HEK cell membranes.

pKi: −log10 of the molar value.

For the compound `Cn1cc(CC(=O)N[C@H]2CC[C@](F)(CCN3CCc4ccc(OCC(F)F)nc4CC3)CC2)c(F)n1`, the pKi is 9.82 in experiment [1] and 5.80 in experiment [2].
